Results: ChEMBL document CHEMBL3621114, “Design and Synthesis of Non-Peptide, Selective Orexin Receptor 2 Agonists” (J Med Chem, 2015)

Chains of the proteins cited; added tags and fusions are not shown.
UniProt O43613, whole entry: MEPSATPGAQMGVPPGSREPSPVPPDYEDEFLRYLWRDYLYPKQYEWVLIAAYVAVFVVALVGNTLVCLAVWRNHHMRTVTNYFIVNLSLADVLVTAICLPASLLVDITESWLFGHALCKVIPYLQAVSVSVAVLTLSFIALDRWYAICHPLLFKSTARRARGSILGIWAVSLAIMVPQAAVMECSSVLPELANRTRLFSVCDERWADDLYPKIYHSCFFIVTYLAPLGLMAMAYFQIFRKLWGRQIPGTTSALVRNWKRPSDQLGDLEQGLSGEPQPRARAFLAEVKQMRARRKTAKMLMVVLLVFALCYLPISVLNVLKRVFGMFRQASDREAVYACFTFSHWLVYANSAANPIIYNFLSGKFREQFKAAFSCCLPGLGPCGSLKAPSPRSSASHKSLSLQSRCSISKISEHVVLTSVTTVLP

Experiments:
[1] = biological target: T1, Orexin/Hypocretin receptor type 1 (Homo sapiens, UniProt O43613); experiment: biochemical
[2] = biological target: T1, Orexin/Hypocretin receptor type 1; experiment: Agonist activity at human OX1R expressed in CHOK1 cells by calcium mobilization assay; type: functional, cell-based, CHO-K1

Question: How did the Ki [1] turn out when COc1ccc(-c2cccc(C(=O)N(C)C)c2)cc1S(=O)(=O)Nc1cccc(NCCNC(=O)c2cccc(C)c2)c1 was run?
Answer: 770 nM

Question: What about the EC50 [2] of the same molecule?
Answer: 1620 nM
